Data reported in patent US20240360165A1, “INHIBITORS OF CYCLIN DEPENDENT KINASE 7 (CDK7)” (Syros Pharmaceuticals, Inc., priority 2016, published 2024).

Protein sequences, listed by entry. Tags and fused reporters are not part of them. Residues count along the entry.
UniProt P50613, whole entry: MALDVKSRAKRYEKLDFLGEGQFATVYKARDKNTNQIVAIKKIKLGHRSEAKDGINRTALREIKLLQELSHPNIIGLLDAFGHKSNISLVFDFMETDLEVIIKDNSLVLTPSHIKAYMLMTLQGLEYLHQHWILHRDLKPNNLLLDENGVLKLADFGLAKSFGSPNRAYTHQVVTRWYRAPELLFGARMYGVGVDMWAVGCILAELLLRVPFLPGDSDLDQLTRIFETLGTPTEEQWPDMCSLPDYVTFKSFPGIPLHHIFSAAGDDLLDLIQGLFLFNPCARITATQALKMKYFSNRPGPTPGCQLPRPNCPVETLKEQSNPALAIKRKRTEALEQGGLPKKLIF
UniProt P50750, whole entry: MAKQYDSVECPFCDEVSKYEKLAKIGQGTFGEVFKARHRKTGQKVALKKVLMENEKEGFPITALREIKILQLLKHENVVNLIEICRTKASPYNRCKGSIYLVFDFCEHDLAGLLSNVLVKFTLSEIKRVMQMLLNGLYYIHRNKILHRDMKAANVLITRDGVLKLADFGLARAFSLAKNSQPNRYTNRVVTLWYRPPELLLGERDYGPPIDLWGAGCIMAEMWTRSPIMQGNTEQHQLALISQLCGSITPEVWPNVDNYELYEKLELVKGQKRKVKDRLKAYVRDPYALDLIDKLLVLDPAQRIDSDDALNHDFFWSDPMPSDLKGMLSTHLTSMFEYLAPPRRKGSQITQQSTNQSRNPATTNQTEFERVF
UniProt Q9NYV4, 686-1082 limits assumed: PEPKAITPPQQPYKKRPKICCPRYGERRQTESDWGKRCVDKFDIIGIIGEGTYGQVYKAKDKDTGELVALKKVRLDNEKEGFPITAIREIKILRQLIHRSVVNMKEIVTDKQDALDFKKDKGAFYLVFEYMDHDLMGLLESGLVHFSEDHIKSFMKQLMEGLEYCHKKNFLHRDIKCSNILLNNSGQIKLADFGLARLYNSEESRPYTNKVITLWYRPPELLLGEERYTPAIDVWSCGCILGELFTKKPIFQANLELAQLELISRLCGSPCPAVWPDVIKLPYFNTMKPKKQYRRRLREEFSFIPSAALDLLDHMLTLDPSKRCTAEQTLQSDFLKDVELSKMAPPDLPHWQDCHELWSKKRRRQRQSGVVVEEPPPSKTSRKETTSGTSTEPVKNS
UniProt O75909, whole entry partner: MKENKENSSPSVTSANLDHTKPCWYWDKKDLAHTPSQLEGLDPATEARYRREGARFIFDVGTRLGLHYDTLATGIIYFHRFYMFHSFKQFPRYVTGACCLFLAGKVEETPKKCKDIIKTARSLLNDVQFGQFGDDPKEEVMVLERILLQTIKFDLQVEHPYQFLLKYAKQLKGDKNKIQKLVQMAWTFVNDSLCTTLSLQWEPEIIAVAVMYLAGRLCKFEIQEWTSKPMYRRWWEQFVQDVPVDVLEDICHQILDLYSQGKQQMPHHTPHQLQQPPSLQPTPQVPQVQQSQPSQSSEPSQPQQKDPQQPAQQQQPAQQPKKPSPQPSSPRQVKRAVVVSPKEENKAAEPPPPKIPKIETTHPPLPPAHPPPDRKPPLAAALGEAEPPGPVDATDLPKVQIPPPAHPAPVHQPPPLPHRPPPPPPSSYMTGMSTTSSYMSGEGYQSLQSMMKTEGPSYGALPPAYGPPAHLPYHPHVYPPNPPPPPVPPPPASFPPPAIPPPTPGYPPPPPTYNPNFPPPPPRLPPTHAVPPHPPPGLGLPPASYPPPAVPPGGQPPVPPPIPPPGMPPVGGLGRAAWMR
UniProt O60563, whole entry partner: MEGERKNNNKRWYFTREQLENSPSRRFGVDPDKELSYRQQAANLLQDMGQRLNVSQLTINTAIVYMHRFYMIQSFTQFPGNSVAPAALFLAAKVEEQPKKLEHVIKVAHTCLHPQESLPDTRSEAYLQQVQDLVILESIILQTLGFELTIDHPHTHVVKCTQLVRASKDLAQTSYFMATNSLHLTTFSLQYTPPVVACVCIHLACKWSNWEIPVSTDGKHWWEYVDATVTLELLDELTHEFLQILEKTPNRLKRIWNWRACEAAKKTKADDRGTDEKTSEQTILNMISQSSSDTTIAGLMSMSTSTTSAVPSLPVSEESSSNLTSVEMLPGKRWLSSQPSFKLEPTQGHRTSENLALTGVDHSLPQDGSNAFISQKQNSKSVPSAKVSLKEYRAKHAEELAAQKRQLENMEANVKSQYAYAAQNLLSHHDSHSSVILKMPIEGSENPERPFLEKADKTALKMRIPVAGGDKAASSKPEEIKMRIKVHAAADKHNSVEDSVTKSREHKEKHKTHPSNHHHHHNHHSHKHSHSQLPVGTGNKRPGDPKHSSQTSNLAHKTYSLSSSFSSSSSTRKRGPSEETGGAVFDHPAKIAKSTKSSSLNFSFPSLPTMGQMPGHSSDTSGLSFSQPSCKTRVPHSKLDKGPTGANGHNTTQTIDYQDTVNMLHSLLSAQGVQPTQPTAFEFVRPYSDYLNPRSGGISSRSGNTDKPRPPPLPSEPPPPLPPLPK
UniProt P51946, whole entry partner: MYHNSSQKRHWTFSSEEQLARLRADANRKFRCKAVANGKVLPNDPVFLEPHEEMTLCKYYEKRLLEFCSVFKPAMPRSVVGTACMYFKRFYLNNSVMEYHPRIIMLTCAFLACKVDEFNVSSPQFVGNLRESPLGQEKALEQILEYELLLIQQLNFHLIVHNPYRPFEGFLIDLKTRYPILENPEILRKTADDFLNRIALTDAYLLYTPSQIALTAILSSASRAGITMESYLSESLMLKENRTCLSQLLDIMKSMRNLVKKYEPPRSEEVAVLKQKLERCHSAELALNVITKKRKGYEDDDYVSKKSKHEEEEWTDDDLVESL
UniProt P51948, whole entry partner: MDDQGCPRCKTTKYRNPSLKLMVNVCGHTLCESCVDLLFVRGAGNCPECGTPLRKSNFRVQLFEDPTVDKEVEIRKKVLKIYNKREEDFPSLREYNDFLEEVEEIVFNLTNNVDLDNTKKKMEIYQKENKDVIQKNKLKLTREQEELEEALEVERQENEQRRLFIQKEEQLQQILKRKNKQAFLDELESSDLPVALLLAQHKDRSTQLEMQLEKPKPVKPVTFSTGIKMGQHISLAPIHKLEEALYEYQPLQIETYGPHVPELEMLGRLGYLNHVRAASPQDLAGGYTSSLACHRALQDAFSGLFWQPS

What was measured:
A673 cells = experiment: Inhibition of proliferation of A673 cells (CyQUANT, 72 hour); conditions: read-out: Inhibition of Proliferation of A673 Cells (calculated IC50)
[1] = molecular target: CDK7/Cyclin H/MAT1 complex (Homo sapiens, UniProt P50613); experiment: CDK7 inhibition assay (Caliper/LabChip EZ Reader kinase assay); conditions: read-out: CDK7; Table 1; CDK7/Cyclin H/MAT1 6 nM, ATP 2 mM, 35 min at 27° C.
CDK9/Cyclin T1 complex = CDK9/Cyclin T1 complex (Homo sapiens, UniProt P50750); experiment: CDK9 inhibition assay (Caliper/LabChip EZ Reader kinase assay); conditions: read-out: CDK9; Table 1; CDK9/Cyclin T1 8 nM, ATP 2 mM, 15 min at 27° C.
[2] = molecular target: CDK12 (aa686-1082)/Cyclin K complex (Homo sapiens, UniProt Q9NYV4); experiment: CDK12 inhibition assay (Caliper/LabChip EZ Reader kinase assay); conditions: read-out: CDK12; Table 1; CDK12 (aa686-1082)/Cyclin K 50 nM, ATP 2 mM, 3 hr at 27° C.
CDK2/Cyclin E1 complex = CDK2/Cyclin E1 complex (Homo sapiens, UniProt P24941); experiment: CDK2 inhibition assay (Caliper/LabChip EZ Reader kinase assay); conditions: read-out: CDK2; Table 1; CDK2/Cyclin E1 0.5 nM, ATP 2 mM, 35 min at 27° C.

Compound | IC50 (A673 cells) | IC50 [1] | IC50 (CDK9/Cyclin T1 complex) | IC50 [2] | IC50 (CDK2/Cyclin E1 complex)
FC(F)(F)Cc1cnc(N[C@H]2CCCNC2)nc1-c1c[nH]c2ccccc12 | 0.02 to 0.2 µM | 0.2 to 5 µM | > 5 µM | 0.2 to 5 µM | > 5 µM
Clc1cnc(N[C@H]2CCCNC2)nc1-c1n[nH]c2ccccc12 | 0.02 to 0.2 µM | < 0.02 µM | 0.2 to 5 µM | 0.2 to 5 µM | 0.2 to 5 µM
CC1(Nc2ncc(Cl)c(-c3c[nH]c4ccccc34)n2)CCCNC1 (centres unmarked) | – | 0.2 to 5 µM | – | – | –
C[C@@H]1CNC[C@@H](Nc2ncc(Cl)c(-c3c[nH]c4ccccc34)n2)C1 | – | 0.02 to 0.2 µM | 0.2 to 5 µM | 0.2 to 5 µM | –
FC(F)(F)c1cnc(N[C@H]2CCCNC2)nc1-c1c[nH]c2cnc(Cl)cc12 | – | – | 0.2 to 5 µM | 0.2 to 5 µM | –
CCc1cnc(N[C@H]2CCCNC2)nc1-c1n[nH]c2ccccc12 | – | 0.02 to 0.2 µM | 0.2 to 5 µM | 0.2 to 5 µM | –
CC(C)[C@@H]1CC[C@H](Nc2ncc(C(F)(F)F)c(-c3c[nH]c4ccccc34)n2)CN1 (single isomer, unassigned) | – | 0.02 to 0.2 µM | > 5 µM | 0.2 to 5 µM | 0.2 to 5 µM
Fc1cccc2c(-c3nc(N[C@H]4CCCNC4)ncc3Cl)n[nH]c12 | – | 0.02 to 0.2 µM | 0.2 to 5 µM | 0.2 to 5 µM | –
CNC(=O)[C@H]1CNC[C@H](Nc2ncc(C(F)(F)F)c(-c3c[nH]c4ccccc34)n2)C1 (single isomer, unassigned) | – | – | 0.2 to 5 µM | 0.2 to 5 µM | –
FC(F)(F)c1cnc(N[C@H]2CCCNC2)nc1-c1c[nH]c2c(Cl)cccc12 | – | – | 0.2 to 5 µM | 0.02 to 0.2 µM | –
Clc1cnc(N[C@@H]2CCCNC2)nc1-c1c[nH]c2ccccc12 | – | 0.2 to 5 µM | 0.2 to 5 µM | 0.2 to 5 µM | –
Oc1ncccc1-c1ccc2c(-c3nc(N[C@H]4CCCNC4)ncc3C(F)(F)F)c[nH]c2c1 [Compound 310, 3-[3-[2-[[(3S)-3-piperidyl]amino]-5-(trifluoromethyl)pyrimidin-4-yl]-1H-indol-6-yl]pyridin-2-ol] | 0.02 to 0.2 µM | – | 0.2 to 5 µM | 0.2 to 5 µM | –
Cc1c(-c2ccc3c(-c4nc(N[C@H]5CCCNC5)ncc4C(F)(F)F)c[nH]c3c2)c[nH]c(=O)c1C#N [Compound 311, 4-methyl-2-oxo-5-[3-[2-[[(3S)-3-piperidyl]amino]-5-(trifluoromethyl)pyrimidin-4-yl]-1H-indol-6-yl]-1H-pyridine-3-carbonitrile] | 0.2 to 5 µM | 0.02 to 0.2 µM | 0.2 to 5 µM | 0.2 to 5 µM | –
Fc1cc2[nH]nc(-c3nc(N[C@H]4CCCNC4)ncc3C(F)(F)F)c2cc1F | – | – | 0.2 to 5 µM | 0.2 to 5 µM | –
CCOP(=O)(OCC)c1ccc2[nH]cc(-c3nc(N[C@H]4CCCNC4)ncc3C(F)(F)F)c2c1 | – | 0.02 to 0.2 µM | 0.2 to 5 µM | – | –
